Literature values in US20150197550A1 (UNIVERSITY OF ULSTER, priority 2012, published 2015).

Settings: in man / in humans, inactivation by DPP-4; cited from earlier work

Q: With “Glucose-dependent insulinotropic polypeptide [GIP(1-42)]” as the substance, how does the half-life read?
A: less than 7 minutes
